# Apparent affinities of Ab-14 variants for a coronavirus HR2 peptide

The measurements come from Li et al. 2023 (doi:10.1038/s41467-023-39022-2) through the FLAb antibody collection.

Binding partner: SARS-CoV-2 spike HR2 peptide, sequence PDVDLGDISGINAS.

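Phage display of a naive human antibody library on the peptide gave the parent. This is the validation round: designs drawn from the data on random variants, tested in the same kind of assay. Their group label is 14L_En_HC (En: ensemble of fine-tuned language models; HC: hill climbing; a sequence that several methods proposed may carry one label only). Affinity was read by AlphaSeq, a pooled yeast mating assay with surface-displayed partners. After mating in shaken culture at 30 °C for 16 h, diploids were selected and their barcode pairs sequenced. Each replicate has its own calibration line, from reference interactions of the BCL2 family. There are six technical replicates.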

Parent: Ab-14, a human scFv built as VH, three GGGGS repeats, VL. Only the CDRs of the light chain vary.
VH: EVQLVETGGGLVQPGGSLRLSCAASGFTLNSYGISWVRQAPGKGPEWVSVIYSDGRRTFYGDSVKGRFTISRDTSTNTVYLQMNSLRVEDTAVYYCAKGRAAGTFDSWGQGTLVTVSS
VL: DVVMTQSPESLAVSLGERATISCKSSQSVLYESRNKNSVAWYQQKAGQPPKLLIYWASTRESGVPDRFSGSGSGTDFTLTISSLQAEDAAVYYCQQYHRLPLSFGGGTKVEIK

Each variant is given by its three light chain CDRs, as the data file delimits them; those of the parent are KSSQSVLYESRNKNSVA, WASTRES, QQYHRLPLS. Affinities are written as log10 Kd with Kd in nM; a lower number is a better binder. Averages over replicates are reported, and they cover detected replicates only. "n.d." means that the variant was in the library but no mating with the target was seen in that replicate; the authors take this as a sign of poor binding, and no number exists.

{"CDR-L1": "KLSQSVGYESRNKSRVA", "CDR-L2": "DNSTRGS", "CDR-L3": "QQYDRLPLS", "log10 Kd (nM) by replicate": "1.96 n.d. n.d. 2.16 2.93 n.d.", "log10 Kd (nM), mean": "2.35", "empty controls": "2 of 18 (2.40)"}
{"CDR-L1": "TLMQFGGYESNAHNSIA", "CDR-L2": "DLRTRES", "CDR-L3": "QQYHRLPLS", "log10 Kd (nM) by replicate": "0.57 0.53 0.45 0.28 0.73 0.47", "log10 Kd (nM), mean": "0.50", "empty controls": "0 of 18"}
{"CDR-L1": "TISQSAQQESHNRNSVA", "CDR-L2": "DLSVRGS", "CDR-L3": "QQYDRLPLS", "log10 Kd (nM) by replicate": "1.65 0.79 1.44 1.62 0.95 1.75", "log10 Kd (nM), mean": "1.37", "empty controls": "0 of 18"}
{"CDR-L1": "KVSASMAFLSRNRNSVA", "CDR-L2": "DNSTRGS", "CDR-L3": "QQYHRLPLS", "log10 Kd (nM) by replicate": "1.17 1.19 0.99 0.76 1.87 0.63", "log10 Kd (nM), mean": "1.10", "empty controls": "1 of 18 (2.53)"}
{"CDR-L1": "KISMLYNFAQTNKNSIA", "CDR-L2": "EMTTREE", "CDR-L3": "QHYHRLPLS", "log10 Kd (nM) by replicate": "0.80 4.24 1.34 1.62 0.80 1.10", "log10 Kd (nM), mean": "1.65", "empty controls": "0 of 18"}
{"CDR-L1": "KLRQMTLTEGYFKNSVA", "CDR-L2": "QASTRAN", "CDR-L3": "QSYHRLPLS", "log10 Kd (nM) by replicate": "1.29 1.09 1.24 1.19 1.08 1.40", "log10 Kd (nM), mean": "1.22", "empty controls": "1 of 18 (2.93)"}
{"CDR-L1": "KLSMFHNVESINKSNVA", "CDR-L2": "EMVTREN", "CDR-L3": "QQYDRLPLS", "log10 Kd (nM) by replicate": "n.d. 3.46 2.14 n.d. 2.72 1.97", "log10 Kd (nM), mean": "2.58", "empty controls": "2 of 18 (2.57)"}
{"CDR-L1": "KLSMSMLMESFHKNSVA", "CDR-L2": "ENSTREE", "CDR-L3": "QHYHRLPLS", "log10 Kd (nM) by replicate": "n.d. n.d. n.d. 1.67 n.d. n.d.", "log10 Kd (nM), mean": "1.67", "empty controls": "0 of 18"}
{"CDR-L1": "QISQSVGMTSRNKNSVA", "CDR-L2": "ENSTRED", "CDR-L3": "QQYDRLPLS", "log10 Kd (nM) by replicate": "n.d. 1.82 3.54 n.d. 2.96 n.d.", "log10 Kd (nM), mean": "2.77", "empty controls": "0 of 18"}
{"CDR-L1": "HISMSMNYLSRNKNNIA", "CDR-L2": "EESTRED", "CDR-L3": "QQYHRLPLS", "log10 Kd (nM) by replicate": "-0.29 -0.53 -0.58 -0.80 -0.56 -0.32", "log10 Kd (nM), mean": "-0.51", "empty controls": "1 of 18 (2.02)"}
{"CDR-L1": "TLTQVGGYEMNAHNSIA", "CDR-L2": "DLRTREN", "CDR-L3": "QQYHRLPLS", "log10 Kd (nM) by replicate": "0.22 0.31 0.62 0.12 0.30 0.26", "log10 Kd (nM), mean": "0.30", "empty controls": "0 of 18"}
{"CDR-L1": "TLSQSTDLESVHKNSIA", "CDR-L2": "DLMTRES", "CDR-L3": "QQYHRLPLS", "log10 Kd (nM) by replicate": "1.12 0.77 0.33 0.40 0.46 0.65", "log10 Kd (nM), mean": "0.62", "empty controls": "0 of 18"}
{"CDR-L1": "KLSQSVNFFGHAINSVA", "CDR-L2": "EMETREN", "CDR-L3": "QQYDRLPLS", "log10 Kd (nM) by replicate": "0.85 0.99 0.61 1.06 0.72 1.08", "log10 Kd (nM), mean": "0.88", "empty controls": "2 of 18 (3.43)"}
{"CDR-L1": "KLSMFHQVESINKSNVA", "CDR-L2": "EMVTRES", "CDR-L3": "QQYDRLPLS", "log10 Kd (nM) by replicate": "1.57 1.39 2.58 0.74 1.17 n.d.", "log10 Kd (nM), mean": "1.49", "empty controls": "0 of 18"}
{"CDR-L1": "TIGQSTLMESRNKNNVA", "CDR-L2": "QMSTREK", "CDR-L3": "QQYDRLPLS", "log10 Kd (nM) by replicate": "n.d. n.d. n.d. n.d. n.d. n.d.", "log10 Kd (nM), mean": "n.d.", "empty controls": "0 of 18"}
{"CDR-L1": "QLYAVNDLTSKNSSNVA", "CDR-L2": "EQTTREN", "CDR-L3": "QQYHRLPLS", "log10 Kd (nM) by replicate": "2.52 1.83 n.d. 2.24 2.99 2.39", "log10 Kd (nM), mean": "2.39", "empty controls": "0 of 18"}
{"CDR-L1": "NVGQKMDGESRNKNSVA", "CDR-L2": "HQSTRED", "CDR-L3": "QHYHRLPLS", "log10 Kd (nM) by replicate": "0.78 1.23 1.95 1.77 1.59 1.12", "log10 Kd (nM), mean": "1.41", "empty controls": "0 of 18"}
{"CDR-L1": "KLYQSMGYLSHNKNSIA", "CDR-L2": "DMTRREN", "CDR-L3": "QQYHRLPLS", "log10 Kd (nM) by replicate": "0.38 0.25 -0.09 -0.04 0.17 0.12", "log10 Kd (nM), mean": "0.13", "empty controls": "3 of 18 (2.56)"}
{"CDR-L1": "KLLQTVMNETRNKNNVA", "CDR-L2": "HMTTRED", "CDR-L3": "QQYHRLPLI", "log10 Kd (nM) by replicate": "1.90 1.24 1.12 1.94 0.99 1.17", "log10 Kd (nM), mean": "1.39", "empty controls": "1 of 18 (1.96)"}
{"CDR-L1": "TLTQSTGMESHNKNSVA", "CDR-L2": "DLSTRGS", "CDR-L3": "QQYHRLPLS", "log10 Kd (nM) by replicate": "0.12 0.21 0.13 -0.02 -0.11 0.00", "log10 Kd (nM), mean": "0.05", "empty controls": "0 of 18"}
{"CDR-L1": "TISGLILMPTRNKNSVA", "CDR-L2": "NTSTRYS", "CDR-L3": "QQYHRLPLS", "log10 Kd (nM) by replicate": "0.87 0.80 0.48 0.53 1.00 0.87", "log10 Kd (nM), mean": "0.76", "empty controls": "0 of 18"}
{"CDR-L1": "NVGQSMDGEIRNKNSVA", "CDR-L2": "HQSTRED", "CDR-L3": "QHYHRLPLS", "log10 Kd (nM) by replicate": "0.97 1.02 0.93 0.75 1.11 0.65", "log10 Kd (nM), mean": "0.90", "empty controls": "1 of 18 (2.87)"}
{"CDR-L1": "ALGDVTRQESNKKNSIA", "CDR-L2": "DMSNRES", "CDR-L3": "QQYHRLPLS", "log10 Kd (nM) by replicate": "1.37 1.67 0.79 2.83 2.05 1.59", "log10 Kd (nM), mean": "1.72", "empty controls": "0 of 18"}
{"CDR-L1": "IISQSFLGEYHNKNSVA", "CDR-L2": "QTSERGS", "CDR-L3": "QQYDRLPLS", "log10 Kd (nM) by replicate": "0.31 0.11 0.23 -0.02 0.04 0.07", "log10 Kd (nM), mean": "0.12", "empty controls": "4 of 18 (3.84)"}
{"CDR-L1": "HISMMVGTKGYNKNSVA", "CDR-L2": "NAETRED", "CDR-L3": "QQYHRLPLS", "log10 Kd (nM) by replicate": "2.59 1.45 2.66 2.02 1.57 3.28", "log10 Kd (nM), mean": "2.26", "empty controls": "2 of 18 (2.09)"}
{"CDR-L1": "KLSMMVDYMSATHSSVA", "CDR-L2": "QTSTREE", "CDR-L3": "QQYHRLPLA", "log10 Kd (nM) by replicate": "1.07 0.77 0.39 0.54 0.41 0.49", "log10 Kd (nM), mean": "0.61", "empty controls": "0 of 18"}
{"CDR-L1": "TISQMFLGESRNRNSVA", "CDR-L2": "QAETRES", "CDR-L3": "QSYDRLPLS", "log10 Kd (nM) by replicate": "1.45 0.51 0.69 0.47 1.10 0.94", "log10 Kd (nM), mean": "0.86", "empty controls": "2 of 18 (2.23)"}
{"CDR-L1": "IISQMMLIESATHNSIA", "CDR-L2": "QTETREE", "CDR-L3": "QQYHHLPLI", "log10 Kd (nM) by replicate": "n.d. n.d. n.d. n.d. n.d. n.d.", "log10 Kd (nM), mean": "n.d.", "empty controls": "0 of 18"}
{"CDR-L1": "MISQLFMYGSRNVNSVA", "CDR-L2": "QASTRES", "CDR-L3": "QQYDRLPLI", "log10 Kd (nM) by replicate": "1.05 1.36 0.66 1.05 0.89 1.59", "log10 Kd (nM), mean": "1.10", "empty controls": "0 of 18"}
{"CDR-L1": "KITGMWTFESHERNNIA", "CDR-L2": "EESTRED", "CDR-L3": "QSYHRLPLS", "log10 Kd (nM) by replicate": "n.d. 1.30 n.d. 0.82 1.96 n.d.", "log10 Kd (nM), mean": "1.36", "empty controls": "0 of 18"}
{"CDR-L1": "ILSQMMLTAGNKHSSVA", "CDR-L2": "QANNRQD", "CDR-L3": "QQYHRLPLS", "log10 Kd (nM) by replicate": "2.48 2.03 2.04 1.02 1.45 1.83", "log10 Kd (nM), mean": "1.81", "empty controls": "1 of 18 (2.74)"}
{"CDR-L1": "KLLQSVNYGMRALNSVA", "CDR-L2": "QMETRED", "CDR-L3": "QQYNRLPLS", "log10 Kd (nM) by replicate": "n.d. 1.01 1.95 2.06 n.d. 1.74", "log10 Kd (nM), mean": "1.69", "empty controls": "1 of 18 (1.97)"}

Repeated from above, the 4 best binders with a signal in all replicates:

CDR-L1	CDR-L2	CDR-L3	log10 Kd (nM) by replicate	log10 Kd (nM), mean	empty controls
HISMSMNYLSRNKNNIA	EESTRED	QQYHRLPLS	-0.29 -0.53 -0.58 -0.80 -0.56 -0.32	-0.51	1 of 18 (2.02)
TLTQSTGMESHNKNSVA	DLSTRGS	QQYHRLPLS	0.12 0.21 0.13 -0.02 -0.11 0.00	0.05	0 of 18
IISQSFLGEYHNKNSVA	QTSERGS	QQYDRLPLS	0.31 0.11 0.23 -0.02 0.04 0.07	0.12	4 of 18 (3.84)
KLYQSMGYLSHNKNSIA	DMTRREN	QQYHRLPLS	0.38 0.25 -0.09 -0.04 0.17 0.12	0.13	3 of 18 (2.56)

Values of this round are not directly comparable with the first-round values of the same sequences. In the paper, a design with two or fewer of six values counts as a poor binder. Three control strains display no target. For all light chain designs, 4% of the pairings with them gave a signal, with a median of 2.64 and one signal in twenty below 1.59, so weak values seen in few replicates may be background. For each scFv, signals with the empty controls are counted beside the result, with their mean in brackets.